Laboratory results: ChEMBL document CHEMBL5321287, “Discovery, Synthesis, and Evaluation of Novel Dual Inhibitors of a Vascular Endothelial Growth Factor Receptor and Poly(ADP-Ribose) Polymerase for BRCA Wild-Type Breast Cancer Therapy” (J Med Chem, 2023)

How the values were obtained:
MDA-MB-231 [1] = assay: Induction of hypoxia in human MDA-MB-231 cells assessed as upregulation of HIF-1alpha level at 4 uM incubated for 2 days in presence 1:1 of Pazopanib by Western blot analysis; format: functional, cell-based; settings: time 2.0 day
MDA-MB-231 [2] = assay: Induction of HR DNA repair in human MDA-MB-231 cells xenografted in BALB/c nude mouse assessed as decrease in RAD51 level at 50 mg/kg, po for 14 days in presence of 1:1 of compound:Pazopanib by Western blot analysis; format: functional, organism-based; settings: time 14.0 day
MDA-MB-231 [3] = assay: Induction of apoptosis in human MDA-MB-231 cells assessed as increase in Bax level at 4 uM incubated for 2 days in presence of 1:1 of compound:Pazopanib by immunoblot analysis; format: functional, cell-based; settings: time 2.0 day
MCF7 [4] = assay: Induction of DNA damage in human MCF7 cells assessed as increase in comet tail length at 4 uM in presence 1:1 of Pazopanib by alkaline comet assay; format: functional, cell-based
MCF7 [5] = assay: Antiinvasive activity against human MCF7 cells at 4 uM incubated for 12 hrs in presence of 1:1 of compound:Pazopanib by transwell assay; format: functional, cell-based
MDA-MB-231 [6] = assay: Antimigratory activity in human MDA-MB-231 cells assessed as downregulation of MMP-2 level at 4 uM incubated for 2 days in presence of 1:1 of compound:Pazopanib by immunoblot analysis; format: functional, cell-based; settings: time 2.0 day
MDA-MB-231 [7] = assay: Induction of HR DNA repair in human MDA-MB-231 cells assessed as decrease in RAD51 level at 4 uM incubated for 48 hrs in presence of 1:1 of compound:Pazopanib by DAPI staining based immunofluorescence analysis; format: functional, cell-based
MDA-MB-231 [8] = assay: Antimigratory activity in human MDA-MB-231 cells xenografted in BALB/c nude mouse assessed as upregulation of E-cadherin level at 50 mg/kg, po for 14 days in presence of 1:1 of compound:Pazopanib by H and E staining based IHC analysis; format: functional, organism-based; settings: time 14.0 day
MDA-MB-231 [9] = assay: Inhibition of colony formation in human MDA-MB-231 cells at 4 uM incubated for 10 days in presence of 1:1 of compound:Pazopanib by crystal violet staining based assay; format: functional, cell-based; settings: time 10.0 day
MCF7 [10] = assay: Antimigratory activity in human MCF7 cells assessed as upregulation of E-cadherin level at 4 uM incubated for 2 days in presence of 1:1 of compound:Pazopanib by immunoblot analysis; format: functional, cell-based; settings: time 2.0 day
MDA-MB-231 [11] = assay: Induction of HR DNA repair in human MDA-MB-231 cells xenografted in BALB/c nude mouse assessed as decrease in RAD51 level at 50 mg/kg, po for 14 days in presence of 1:1 of compound:Pazopanib by H and E staining based IHC analysis; format: functional, organism-based; settings: time 14.0 day
MDA-MB-231 [12] = assay: Antimigratory activity in human MDA-MB-231 cells assessed as downregulation of MMP-2 level at 4 uM in presence of 1:1 of compound:Pazopanib by DAPI staining based immunofluorescence analysis; format: functional, cell-based
MDA-MB-231 [13] = assay: Antiproliferation activity against human MDA-MB-231 cells assessed as decrease in Ki67 expression at 4 uM incubated for 48 hrs in presence of 1:1 of compound:Pazopanib by immunofluorescence analysis; format: functional, cell-based
MDA-MB-231 [14] = assay: Induction of apoptosis in human MDA-MB-231 cells assessed as decrease in Bcl-2 level at 4 uM incubated for 2 days in presence of 1:1 of compound:Pazopanib by immunoblot analysis; format: functional, cell-based; settings: time 2.0 day
MDA-MB-231 [15] = assay: Antimetastatic activity against human MDA-MB-231 cells xenografted in lungs of BALB/c nude mouse assessed as decrease in lung metastatic nodules at 50 mg/kg administered once a day measured after 14 days in presence of 1:1 of compound:Pazopanib; format: functional, organism-based; settings: time 14.0 day
MCF7 [16] = assay: Antiproliferation activity against human MCF7 cells assessed as decrease in Ki67 expression at 4 uM incubated for 48 hrs in presence of 1:1 of compound:Pazopanib by immunofluorescence analysis; format: functional, cell-based
MDA-MB-231 [17] = assay: Downregulation of PAR expression in human MDA-MB-231 cells xenografted in BALB/c nude mouse at 25 to 50 mg/kg, po for 14 days in presence of 1:1 of compound:Pazopanib by Western blot analysis; format: functional, organism-based; settings: dose 25-50 mg/kg, time 14.0 day
MDA-MB-231 [18] = assay: Antimigratory activity against human MDA-MB-231 cells at 4 uM incubated for 1 hr in presence of 1:1 of compound:Pazopanib by wound healing assay; format: functional, cell-based
MCF7 [19] = assay: Antimigratory activity against human MCF7 cells at 4 uM incubated for 1 hr in presence of 1:1 of compound:Pazopanib by wound healing assay; format: functional, cell-based
MDA-MB-231 [20] = assay: Antiproliferation activity against human MDA-MB-231 cells xenografted in BALB/c nude mouse assessed as decrease in Ki67 expression at 50 mg/kg, po for 14 days in presence of 1:1 of compound:Pazopanib by H and E staining based IHC analysis; format: functional, organism-based; settings: time 14.0 day
MDA-MB-231 [21] = assay: Downregulation of PAR expression in human MDA-MB-231 cells at 4 uM incubated for 2 days in presence 1:1 of Pazopanib by Western blot analysis; format: functional, cell-based; settings: time 2.0 day
MCF7 [22] = assay: Inhibition of colony formation in human MCF7 cells at 4 uM incubated for 10 days in presence of 1:1 of compound:Pazopanib by crystal violet staining based assay; format: functional, cell-based; settings: time 10.0 day
MDA-MB-231 [23] = assay: Antimigratory activity in human MDA-MB-231 cells xenografted in BALB/c nude mouse assessed as downregulation of MMP2 level at 50 mg/kg, po for 14 days in presence of 1:1 of compound:Pazopanib by H and E staining based IHC analysis; format: functional, organism-based; settings: time 14.0 day
MCF7 [24] = assay: Antimigratory activity in human MCF7 cells assessed as downregulation of MMP-2 level at 4 uM in presence of 1:1 of compound:Pazopanib by DAPI staining based immunofluorescence analysis; format: functional, cell-based
MCF7 [25] = assay: Induction of apoptosis in human MCF7 cells assessed as increase in cleaved caspase-3 level at 4 uM incubated for 2 days in presence of 1:1 of compound:Pazopanib by immunoblot analysis; format: functional, cell-based; settings: time 2.0 day
MCF7 [26] = assay: Antimigratory activity in human MCF7 cells assessed as downregulation of MMP-2 level at 4 uM incubated for 2 days in presence of 1:1 of compound:Pazopanib by immunoblot analysis; format: functional, cell-based; settings: time 2.0 day
MDA-MB-231 [27] = assay: Induction of DNA damage in human MDA-MB-231 cells xenografted in BALB/c nude mouse assessed as increase in gamma-H2AX level at 50 mg/kg, po for 14 days in presence of 1:1 of compound:Pazopanib by H and E staining based IHC analysis; format: functional, organism-based; settings: time 14.0 day
MCF7 [28] = assay: Induction of DNA damage in human MCF7 cells assessed as increase in gamma-H2AX level at 4 uM incubated for 48 hrs in presence of 1:1 of compound:Pazopanib by DAPI staining based immunofluorescence analysis; format: functional, cell-based
MDA-MB-231 [29] = assay: Induction of apoptosis in human MDA-MB-231 cells assessed as increase in cleaved caspase-3 level at 4 uM incubated for 2 days in presence of 1:1 of compound:Pazopanib by immunoblot analysis; format: functional, cell-based; settings: time 2.0 day
MDA-MB-231 [30] = assay: Induction of HR DNA repair in human MDA-MB-231 cells xenografted in BALB/c nude mouse assessed as decrease in FOXM1 level at 50 mg/kg, po for 14 days in presence of 1:1 of compound:Pazopanib by H and E staining based IHC analysis; format: functional, organism-based; settings: time 14.0 day

O=C(c1cc(Cc2n[nH]c(=O)c3ccccc23)ccc1F)N1CCN(C(=O)C2CC2)CC1 [OLAPARIB]
Activity (MDA-MB-231 [1]): Active | Activity (MDA-MB-231 [2]): Active | Activity (MDA-MB-231 [3]): Active | Activity (MCF7 [4]): Active | Activity (MCF7 [5]): Active | Activity (MDA-MB-231 [6]): Active | Activity (MDA-MB-231 [7]): Active | Activity (MDA-MB-231 [8]): Active | inhibition (MDA-MB-231 [9]): Active | Activity (MCF7 [10]): Active | Activity (MDA-MB-231 [11]): Active | Activity (MDA-MB-231 [12]): Active | Activity (MDA-MB-231 [13]): Active | Activity (MDA-MB-231 [14]): Active | Activity (MDA-MB-231 [15]): Active | Activity (MCF7 [16]): Active | Activity (MDA-MB-231 [17]): Active | Activity (MDA-MB-231 [18]): Active | Activity (MCF7 [19]): Active | Activity (MDA-MB-231 [20]): Active | Activity (MDA-MB-231 [21]): inactive | inhibition (MCF7 [22]): Active | Activity (MDA-MB-231 [23]): Active | Activity (MCF7 [24]): Active | Activity (MCF7 [25]): Active | Activity (MCF7 [26]): Active | Activity (MDA-MB-231 [27]): Active | Activity (MCF7 [28]): Active | Activity (MDA-MB-231 [29]): Active | Activity (MDA-MB-231 [30]): Active

Active and inactive are the calls of the source. The calls are words filed in the database; no cut-off is given here.
